MLL AF4-AF9 inh – inhibitors of AF4 peptide binding to AF9, primary screen, biochemical, AlphaScreen, biotin-AF4 peptide, FLAG-AF9, single point; Protein AF-9 (Homo sapiens), P42568; AID 651704, 2012; inhibition, % at 10 µM; 0.47% of 350,000 active;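 active means every replicate reaching a set inhibition limit, whatever the replicate mean, cut at about 25% in these data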;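 further: 0% = plate neutral control median and 100% = total signal loss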
E-selectin induc – E-selectin induction in HUVECs, primary screen, imaging, HUVEC, immunofluorescence imaging, single point. normalized: neutral wells 0, TNF-alpha wells 100. AID 686992, 2013. activation, % at 7.58 µM. P16581. 0.37% of 260,000 active;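 active means mean E-selectin-positive cell signal at least 10% of the positive control, reached in at least 60% of replicates, without over 20% cell loss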
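Read-out basis: % PE-positive cells; Test system: HUVEC primary endothelial cells; Technique: immunofluorescence imaging; Dosing: single-point compound dose.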
ARNT-TACC3 inh – disruptors of ARNT/TACC3 protein interaction, primary screen, biochemical, AlphaScreen, single concentration | inhibition, % at 9.99 µM | Transforming acidic coiled-coil-containing protein 3 (Homo sapiens), Q9Y6A5 | 0.66% of 390,000 active | AlphaScreen His-ARNT PAS-B/GST-TACC3 binding, luminescence; TACC3 fragment carries E629A point mutation;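 active means mean inhibition of replicates at least 50% and at least half of replicates each reaching 50%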;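 further: 0% = complete ARNT plus TACC3 wells and 100% = ARNT alone without TACC3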
Yeast UUG start – yeast start codon fidelity modulation; AID 602363; activity score, % at 18.7 µM; S. cerevisiae UUG-firefly luciferase reporter, luminescence/redox ratio; 0.13% of 350,000 active;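 active means replicate mean at a twofold rise or more, about +100% in these data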;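 further: firefly luciferase made from a UUG start codon reports start codon fidelity; reporter light over untreated wells divided by growth signal over untreated wells; some hits fall short of that in this replicate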
S100A4 MyoIIA – inhibitors of S100A4-myosin IIA peptide binding, primary screen, biochemical, fluorescence polarization, TAMRA-MyoIIA peptide. Protein S100-A4 (Homo sapiens), P26447. inhibition, % at 10.7 µM. 0.14% of 360,000 active. AID 652163, 2013;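 active means mean inhibition of at least 70% across replicates, with every replicate also reaching that level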
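Test system: S100A4 monomer protein; Medium: HEPES pH 7.2 with CaCl2, KCl, NaCl, DTT, Triton; Probe or stimulus: TAMRA-labelled myosin IIA heavy-chain peptide probe, 5 nM; Doses: one dose per compound; Times: polarization read 5 min after assay mix addition, stable 5–60 min; Benchmarks: neutral control DMSO, positive control TFP.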
ERAP1 inh – human ERAP1 aminopeptidase inhibitors, primary screen, biochemical, single point, plate reader. recombinant ERAP1, Leu-AMC fluorescence, 60 min. inhibition, % at 10.7 µM. 0.15% of 340,000 active. AID 652197, 2013;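 active means mean replicate inhibition of at least 30%, or all replicates individually reaching that 30% level; inactive means mean below 30% and not every replicate reaching it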;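 further: 0% = neutral control wells and 100% = L-leucinethiol positive control wells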
Alpha interfer – AlphaScreen signal interference counter-screen, dose response, artefact control, biochemical, cherry-picked samples, luminescence. 45% of 530 active. AC50, µM (top dose mostly 12 µM), without a hit: top-dose activity change, negative = inhibition. shares compounds with MLL AF4-AF9 inh; cut-off not given, nearly all actives have AC50 up to about 14 µM
Starred values were filed as active, the others as inactive; . = no result given. Hits are enriched below; roughly 1.3% of the tested compounds scored in any of these assays.

By UniProt entry, the sequences of proteins in these tests, tags left out.
Protein AF-9 (Homo sapiens), P42568, UniProt P42568, whole entry, looked up: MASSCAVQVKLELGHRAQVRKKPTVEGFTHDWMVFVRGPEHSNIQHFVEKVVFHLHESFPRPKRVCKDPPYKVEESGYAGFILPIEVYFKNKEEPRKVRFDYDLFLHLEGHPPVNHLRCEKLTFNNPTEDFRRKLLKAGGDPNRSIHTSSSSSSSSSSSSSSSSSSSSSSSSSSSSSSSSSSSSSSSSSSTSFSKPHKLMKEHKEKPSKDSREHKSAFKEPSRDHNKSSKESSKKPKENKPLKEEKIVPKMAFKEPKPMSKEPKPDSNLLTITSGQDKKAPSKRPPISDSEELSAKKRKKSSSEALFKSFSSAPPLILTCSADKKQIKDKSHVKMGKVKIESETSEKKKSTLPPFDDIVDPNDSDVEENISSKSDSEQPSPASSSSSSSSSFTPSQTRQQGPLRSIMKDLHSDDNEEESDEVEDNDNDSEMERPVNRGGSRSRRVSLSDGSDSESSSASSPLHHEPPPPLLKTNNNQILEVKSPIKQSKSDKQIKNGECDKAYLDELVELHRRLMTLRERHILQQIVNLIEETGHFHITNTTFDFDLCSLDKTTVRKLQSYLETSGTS

1) CCN(CC)c1ccc(CNc2ccc3c(c2)ncn3C(C)(C)C)cc1
2) CCc1ccc(CNc2ccc3c(c2)ncn3C(C)(C)C)cc1
3) COc1cc(CN2CCC(C(=O)NC(c3ccc(F)cc3)c3ccc4ccccc4n3)CC2)cc(OC)c1 (stereo not drawn)
4) Cn1cc(CN2CCC(C(=O)NC(c3ccc(F)cc3)c3ccc4ccccc4n3)CC2)c2ccccc21 (stereo not drawn)
5) C[C@H]1CN([C@@H](C)CO)C(=O)c2cc(NC(=O)NC3CCCCC3)ccc2O[C@H]1CN(C)Cc1ccncc1
6) CN=c1scc(-c2cccs2)n1/N=C/c1ccccc1O
7) CN1CCN(CCCCOc2ccccc2C=O)CC1
8) COc1cccc(OC)c1OCCCCCCN1CCN(C)CC1

Screen / compound no.,1,2,3,4,5,6,7,8
MLL AF4-AF9 inh,41*,15,2,25*,-1,31*,33*,-24
E-selectin induc,.,0,1,0,0,.,-5,.
ARNT-TACC3 inh,21,1,.,.,1,9,15,-9
Yeast UUG start,-21,-26,6,-6,-4,.,7,-9
S100A4 MyoIIA,-13,-3,-4,6,4,3,-6,2
ERAP1 inh,1,0,1,-1,-3,12,3,-3
Alpha interfer,9µM*,.,.,-34%,.,-23%,-36%,.

9) CN(C)c1cccc2c1C(=O)c1ccccc1C2=O
10) CN1C(=O)c2cccc(N(C)C)c2C1=O
11) Cc1csc(Nc2ccccc2)[n+]1-c1ccccc1
12) CCC(=O)N[C@H]1C[C@@H]2O[C@H](CO)CC[C@@H]2O[C@@H]1CCc1ccc(-c2cccc(OC)c2)cc1
13) Cc1c(C)n(Cc2ccccc2)c2ccc(C(=O)NCCN3CCOCC3)cc12
14) Cc1c(C)n(Cc2ccccc2)c2ccc(C(=O)OCCN(C)C)cc12
15) COc1cccc2sc(N(CCCN(C)C)C(=O)c3ccc(S(=O)(=O)N4CCCc5ccccc54)cc3)nc12
16) CN(C)CCCN(C(=O)c1ccc(S(=O)(=O)N2CCc3ccccc32)cc1)c1nc2c(Cl)cccc2s1

Screen / compound no.,9,10,11,12,13,14,15,16
MLL AF4-AF9 inh,43*,-12,28*,-2,11,28*,36*,7
E-selectin induc,.,.,.,.,3,.,14,0
ARNT-TACC3 inh,30,1,.,.,-2,-52,21,.
Yeast UUG start,.,5,.,.,-2,-4,-13,17
S100A4 MyoIIA,-3,-2,1,34,-26,-1,3,-1
ERAP1 inh,1,-1,-1,4,-3,9,-9,-3
Alpha interfer,13µM*,.,-35%,.,.,-29%,-18%,.

Part of the list above in order of SMILES length, lowest first.
11) Cc1csc(Nc2ccccc2)[n+]1-c1ccccc1
13) Cc1c(C)n(Cc2ccccc2)c2ccc(C(=O)NCCN3CCOCC3)cc12
16) CN(C)CCCN(C(=O)c1ccc(S(=O)(=O)N2CCc3ccccc32)cc1)c1nc2c(Cl)cccc2s1

Screen / compound no.,11,13,16
MLL AF4-AF9 inh,28*,11,7
E-selectin induc,.,3,0
ARNT-TACC3 inh,.,-2,.
Yeast UUG start,.,-2,17
S100A4 MyoIIA,1,-26,-1
ERAP1 inh,-1,-3,-3
Alpha interfer,-35%,.,.

Carrying on:
17) Cc1ccc2c(c1)c1c3n2CCCN(Cc2ccccc2)C3CCC1 (stereo not drawn)
18) CCC(=O)N1CCC2(CC1)CN(Cc1ccccc1Cl)[C@H](CO)c1c2c2ccc(OC)cc2n1C
19) COc1ccc(CN2CC3(C2)CN(Cc2ccc4c(c2)OCO4)[C@H](CO)c2[nH]c4cc(OC)ccc4c23)cc1
20) CC(=O)N(C)C[C@H]1Oc2ncc(C#Cc3cccnc3)cc2C(=O)N([C@@H](C)CO)C[C@@H]1C
21) C[C@@H](C(=O)NC1CCN(Cc2ccccc2)CC1)N1C(=O)N2CCc3c([nH]c4ccccc34)[C@@]2(C)C1=O
22) CC(C)C[C@@H](C(=O)NC1CCN(Cc2ccccc2)CC1)N1C(=O)N2CCc3c([nH]c4ccccc34)[C@@]2(C)C1=O
23) COc1ccc2c3c(n(C)c2c1)[C@H](CO)N(C(=O)C1CCCCC1)CC31CCN(C(=O)Nc2cccc(F)c2)CC1
24) CCc1nc2ccc(C(=O)NC3CCN(Cc4ccccc4)CC3)cn2c1N(C)Cc1ccc(N(C)C)cc1

Screen / compound no.,17,18,19,20,21,22,23,24
MLL AF4-AF9 inh,32*,3,36*,-6,15,37*,-2,52*
E-selectin induc,.,0,0,0,.,.,0,1
ARNT-TACC3 inh,37,.,.,-3,24,-8,.,.
Yeast UUG start,-16,.,.,-4,-7,-2,.,-28
S100A4 MyoIIA,-13,-5,.,11,-2,-1,.,-6
ERAP1 inh,0,3,.,1,.,-2,.,-2
Alpha interfer,-11%,.,-28%,.,.,-2%,.,8.5µM*

25) CCc1nc2ccc(C(=O)NC3CCN(C)CC3)cn2c1N(C)CCC(C)C
26) O=C(Nc1ccc2c(c1)[C@@H]1C[C@H](CC(=O)N3CCc4ccccc4C3)O[C@H](CO)[C@@H]1O2)c1cccnc1
27) CS(=O)(=O)N1CCCCN2[C@H](C1)[C@H](c1ccc(C#Cc3ccccn3)cc1)[C@@H]2CO
28) C[C@H]1CN([C@@H](C)CO)C(=O)c2cccc(NC(=O)Nc3ccccc3)c2O[C@@H]1CN(C)S(=O)(=O)c1ccc(Cl)cc1
29) COCC#Cc1ccc([C@@H]2[C@H]3CN(C(=O)Nc4cc(F)ccc4F)CCCCN3[C@H]2CO)cc1
30) C[C@@H]1ON(C)[C@H]2C[C@H]3c4[nH]c5ccc(-c6ccc7c(c6)OCO7)cc5c4CCN3C[C@@H]12
31) C[C@@H]1ON(C)[C@H]2C[C@H]3c4[nH]c5cccc(-c6ccccc6)c5c4CCN3C[C@@H]12
32) CCC(=O)N1[C@H](CN(C)C(C)=O)[C@H](c2ccc(C3=CCCC3)cc2)[C@@H]1CO

Screen / compound no.,25,26,27,28,29,30,31,32
MLL AF4-AF9 inh,4,3,32*,2,0,31*,.,-5
E-selectin induc,7,0,0,0,1,2,0,0
ARNT-TACC3 inh,.,14,9,2,1,.,.,.
Yeast UUG start,-18,.,-3,-12,9,-12,.,.
S100A4 MyoIIA,3,-35,-5,3,-33,-8,-21,6
ERAP1 inh,-9,1,-2,-1,2,24,-1,-6
Alpha interfer,.,.,-16%,.,.,-15%,.,.

33) CCOC(=O)c1c(C)n(-c2ccc(C)cc2)c2ccc(OCC(O)CNCCCO)cc12 (stereo not drawn)
34) COc1ccc(N2CCN(C(=O)C3CCCN(S(=O)(=O)c4c(C)noc4C)C3)CC2)cc1 (stereo not drawn)
35) CN(C)c1ccc(N=Nc2ccccc2Br)cc1
36) CCOc1ccc(Nc2ccc([N+](=O)[O-])c3nonc23)cc1
37) CC(=O)NS(=O)(=O)c1ccc(Nc2ccc([N+](=O)[O-])c3nonc23)cc1
38) CN(C)CCCNC(=O)C[C@@H]1CC[C@@H](NS(=O)(=O)c2ccccc2)[C@H](CO)O1

Screen / compound no.,33,34,35,36,37,38
MLL AF4-AF9 inh,27*,28*,35*,29*,0,-1
E-selectin induc,.,0,1,0,0,0
ARNT-TACC3 inh,17,7,21,39,7,-2
Yeast UUG start,.,8,-62,-7,.,-10
S100A4 MyoIIA,-2,19,-3,-1,19,-12
ERAP1 inh,2,.,-4,2,.,-1
Alpha interfer,-19%,-5%,12µM*,-21%,.,.

Bioassay records deposited in PubChem by Broad Institute.
